Values quoted from earlier work, collected in US20070292421A1, “Method for treating preeclampsia” (priority 2005, published 2007).

Molecular target: T1, human C5a receptor (Homo sapiens, UniProt P21730)
T1 sequence (P21730 1-350): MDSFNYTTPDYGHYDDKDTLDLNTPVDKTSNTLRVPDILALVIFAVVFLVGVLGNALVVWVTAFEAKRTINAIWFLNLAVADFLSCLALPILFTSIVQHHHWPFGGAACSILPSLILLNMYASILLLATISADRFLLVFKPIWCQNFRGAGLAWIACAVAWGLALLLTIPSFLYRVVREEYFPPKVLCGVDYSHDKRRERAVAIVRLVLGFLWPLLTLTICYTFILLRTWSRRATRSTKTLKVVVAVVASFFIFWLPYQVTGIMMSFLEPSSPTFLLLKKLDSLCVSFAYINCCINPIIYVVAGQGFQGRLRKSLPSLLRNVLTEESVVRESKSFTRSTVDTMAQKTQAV

oral activity (human, in vivo, po): orally active
Substance: Ac-Phe [3D53, Ac-Phe [Orn-Pro-D-Cha-Trp-Arg]]
efficacy in decreasing inflammatory sequelae (phase II clinical trials): superior efficacy to NSAID's and glucocorticoids
